In ChEMBL document CHEMBL1125513, “Substituted 1-(aminomethyl)-2-(arylacetyl)-1,2,3,4-tetrahydroisoquinolines: a novel class of very potent antinociceptive agents with varying degrees of selectivity for kappa and mu opioid receptors” (1992) one finds Ki data, which are given here for five compounds.

Sequences of proteins named here, by UniProt entry; tags and fusion partners are left off. A change or cut given only in a name is not applied to a line headed by its entry.
UniProt P97266, whole entry, looked up: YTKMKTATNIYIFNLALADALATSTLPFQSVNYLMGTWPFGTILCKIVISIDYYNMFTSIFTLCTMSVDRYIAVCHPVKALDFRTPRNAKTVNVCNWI
UniProt P41144: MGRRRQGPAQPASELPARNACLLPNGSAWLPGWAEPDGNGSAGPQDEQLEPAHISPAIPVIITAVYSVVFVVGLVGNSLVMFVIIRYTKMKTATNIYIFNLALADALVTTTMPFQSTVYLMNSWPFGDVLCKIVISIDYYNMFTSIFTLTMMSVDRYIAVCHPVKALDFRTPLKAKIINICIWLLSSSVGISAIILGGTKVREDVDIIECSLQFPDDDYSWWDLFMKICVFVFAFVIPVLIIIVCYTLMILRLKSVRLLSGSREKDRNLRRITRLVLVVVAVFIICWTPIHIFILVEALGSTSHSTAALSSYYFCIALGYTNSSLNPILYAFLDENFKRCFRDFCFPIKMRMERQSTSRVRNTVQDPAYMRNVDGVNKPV
UniProt P41143, whole entry, looked up: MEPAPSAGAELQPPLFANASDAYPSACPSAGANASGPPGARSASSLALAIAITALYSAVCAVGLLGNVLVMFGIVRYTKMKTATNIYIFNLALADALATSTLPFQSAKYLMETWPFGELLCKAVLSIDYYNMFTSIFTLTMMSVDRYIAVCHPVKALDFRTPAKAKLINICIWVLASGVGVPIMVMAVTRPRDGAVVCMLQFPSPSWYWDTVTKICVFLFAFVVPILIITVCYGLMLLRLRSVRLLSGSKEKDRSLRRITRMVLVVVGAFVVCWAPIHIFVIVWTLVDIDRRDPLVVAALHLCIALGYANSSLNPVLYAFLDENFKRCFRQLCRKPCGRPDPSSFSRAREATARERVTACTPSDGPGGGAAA

Each structure is given as a SMILES string. pKi: −log10 of the molar value.

One experiment addresses Mu-type opioid receptor (Cavia porcellus, UniProt P97266). Nature of the experiment: Receptor binding affinity towards opioid receptor mu.
The target in experiment [1] is Kappa-type opioid receptor (Cavia porcellus, UniProt P41144). Briefly: Receptor binding affinity towards opioid receptor kappa.
Experiment [2] deals with Delta-type opioid receptor (Homo sapiens, UniProt P41143). Nature of the experiment: Receptor binding affinity towards opioid receptor delta.

The pKi is the negative decadic logarithm of the Ki, by convention in mol/L. With `C[C@@H]1CN(C(=O)Cc2ccc(Cl)c(Cl)c2)[C@@H](CN2CCCC2)c2ccccc21`, the results for the negative-log Ki (pKi) (at Mu-type opioid receptor; in experiment [1]) were 7.25 and 9.22, respectively. Take `CC1(C)CN(C(=O)Cc2ccc(Cl)c(Cl)c2)C(CN2CCCC2)c2ccccc21` (centres undefined): the pKi is 6.62 on Mu-type opioid receptor and 8.64 in experiment [1]. Consider `O=C(Cc1ccc(Cl)c(Cl)c1)N1CCc2ccccc2C1CN1CCCC1` (centres undefined), for which the pKi in experiment [2] is 6.95. For `O=C(Cc1ccc(Cl)c(Cl)c1)N1CCc2c(O)cccc2C1CN1CCCC1` (centres undefined), the pKi on Mu-type opioid receptor was 9.31; in experiment [1] it was 10.05. As to `C[C@@H]1Cc2ccccc2[C@H](CN2CCCC2)N1C(=O)Cc1ccc(Cl)c(Cl)c1`, the negative logarithm of the Ki (pKi) on Mu-type opioid receptor was 7.95; in experiment [1], 9.37.
